# Tests used:
# By UniProt entry, the sequences of proteins in these tests, tags left out.
# UniProt Q7Z3E1, whole entry: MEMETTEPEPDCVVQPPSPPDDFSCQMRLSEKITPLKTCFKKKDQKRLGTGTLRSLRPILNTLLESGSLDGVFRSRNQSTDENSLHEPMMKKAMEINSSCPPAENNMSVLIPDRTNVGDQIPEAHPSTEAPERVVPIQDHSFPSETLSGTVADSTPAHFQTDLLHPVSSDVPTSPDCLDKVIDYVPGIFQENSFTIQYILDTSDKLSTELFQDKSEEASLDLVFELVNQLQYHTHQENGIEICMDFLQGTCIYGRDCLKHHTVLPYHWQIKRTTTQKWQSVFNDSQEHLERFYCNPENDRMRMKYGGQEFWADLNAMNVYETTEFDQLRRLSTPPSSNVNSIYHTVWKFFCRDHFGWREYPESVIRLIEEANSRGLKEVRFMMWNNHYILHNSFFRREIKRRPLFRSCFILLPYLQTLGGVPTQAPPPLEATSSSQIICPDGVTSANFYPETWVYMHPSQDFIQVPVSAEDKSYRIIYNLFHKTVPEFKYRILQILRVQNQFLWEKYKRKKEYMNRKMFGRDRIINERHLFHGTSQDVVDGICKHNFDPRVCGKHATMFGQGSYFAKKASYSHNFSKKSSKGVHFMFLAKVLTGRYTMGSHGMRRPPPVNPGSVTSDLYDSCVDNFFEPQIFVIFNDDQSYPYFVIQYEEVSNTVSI
# PARP7 = PARP7 (Homo sapiens, UniProt Q7Z3E1); experiment: Test of inhibitory activity against PARP7 enzyme (PARP7 FLAG-tag, Probe A, time-resolved fluorescence); assay type: biochemical; conditions: read-out: Inhibitory activity against PARP7 enzyme IC50; PARP7 12 nM, Probe A 2 nM, 1 hr room temperature
# NCI-H1373 cells = experiment: Cell proliferation inhibition assay (CTG method); assay type: cell-based, human; conditions: read-out: IC50 (nM) for NCI-H1373 cell viability, 6 days incubation
compound,measurement,setting,value
C[C@@H](COCCC(=O)N1CCN2c3ncc(C(F)(F)F)cc3C=C[C@@H]2C1)Nc1cn[nH]c(=O)c1C(F)(F)F,IC50,PARP7,< 10 nM
same,IC50,NCI-H1373 cells,< 100 nM

# — patent US20240166664A1, “TRIHETEROCYCLIC COMPOUND, PREPARATION METHOD THEREFOR, AND APPLICATION THEREOF” (SHANGHAI APEIRON THERAPEUTICS COMPANY LIMITED, priority 2021, published 2024)
